Results published in US12398179.

Molecular target: EphA2 extracellular domain fused to the Fc portion of an antibody (EphA2 Fc)
Experiment: competition ELISA: inhibition of ephrin-A5 AP binding to immobilized EphA2 Fc; average ± SE (number of experiments)

IC50: 27 nM
B1: CcamGA-WLA-YRPK-bio (peptide)
peptide: CGAWLAYPDSVPYRPK
modifications: N-terminal Ccam (as printed, not explained); biotin on the C-terminal lysine (K-bio)
